Values of other authors, collected in paper PMC7190706, “A Self-Assembling Lipidic Peptide and Selective Partial V2 Receptor Agonist Inhibits Urine Production” (Scientific Reports, 2020).

Tested on: human V1b receptor
Details: lower EC50 than against the human V2 receptor; cited from earlier work

Substance: desmopressin
- agonism at the human V1b receptor: potent agonist
